# Values of other authors in PMC5957473, “Small Molecule Neuropilin-1 Antagonists Combine Antiangiogenic and Antitumor Activity with Immune Modulation through Reduction of Transforming Growth Factor Beta (TGFβ) Production in Regulatory T-Cells” (Journal of Medicinal Chemistry, 2018).
# Design: method as in PMID 26755653
# Conditions: historical compound; cited from earlier work
compound,measurement,value
"N=C(N)NCCC[C@H](NC(=O)c1sccc1NS(=O)(=O)c1cccc2nsnc12)C(=O)O [EG00229, (S)-2-(3-(benzo[c][1,2,5]thiadiazole-4-sulfonamido)thiophene-2-carboxamido)-5-((diaminomethylene)amino)pentanoic acid]",half-life,30 min
